Biological target: CDK7/Cyclin H/MAT1 trimeric complex (Homo sapiens, UniProt P50613)
Experiment: Caliper/LabChip EZ Reader CDK7 inhibition assay

Amino acid sequences for entries named in this document (tags omitted). A change or cut given only in a name is not applied to a line headed by its entry.
UniProt P50613: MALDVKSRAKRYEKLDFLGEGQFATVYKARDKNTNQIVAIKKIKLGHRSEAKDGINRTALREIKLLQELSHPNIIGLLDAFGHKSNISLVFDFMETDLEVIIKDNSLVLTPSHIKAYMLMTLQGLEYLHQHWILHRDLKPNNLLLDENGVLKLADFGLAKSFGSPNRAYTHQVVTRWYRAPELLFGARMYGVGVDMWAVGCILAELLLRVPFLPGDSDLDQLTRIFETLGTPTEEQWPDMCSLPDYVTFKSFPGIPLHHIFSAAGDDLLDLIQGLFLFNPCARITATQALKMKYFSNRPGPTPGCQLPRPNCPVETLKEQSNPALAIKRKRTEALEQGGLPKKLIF

Which IC50 does the source give for `Cc1cc(NC(=O)/C=C/CN(C)C)ccc1C(=O)N1CCC(Nc2ncc(Cl)c(-c3c[nH]c4ccccc34)n2)CC1` [Compound 114, (E)-N-(4-(4-(5-chloro-4-(1H-indol-3-yl)pyrimidin-2-ylamino)piperidine-1-carbonyl)-3-methylphenyl)-4-(dimethylamino)but-2-enamide] here?
The IC50 was 100 to 1000 nM.

— patent publication US20190292167A1, “HETEROAROMATIC COMPOUNDS USEFUL FOR THE TREATMENT OF PROLIFERATIVE DISEASES” (Syros Pharmaceuticals, Inc., priority 2013, published 2019)
